Article PMC11381307 (Frontiers in Pharmacology, 2024)

Assays:
[1] = target: T1, OATP1B1 (Homo sapiens, UniProt Q9Y6L6); details: 10 μM MPAG
T1 sequence (Q9Y6L6 1-691): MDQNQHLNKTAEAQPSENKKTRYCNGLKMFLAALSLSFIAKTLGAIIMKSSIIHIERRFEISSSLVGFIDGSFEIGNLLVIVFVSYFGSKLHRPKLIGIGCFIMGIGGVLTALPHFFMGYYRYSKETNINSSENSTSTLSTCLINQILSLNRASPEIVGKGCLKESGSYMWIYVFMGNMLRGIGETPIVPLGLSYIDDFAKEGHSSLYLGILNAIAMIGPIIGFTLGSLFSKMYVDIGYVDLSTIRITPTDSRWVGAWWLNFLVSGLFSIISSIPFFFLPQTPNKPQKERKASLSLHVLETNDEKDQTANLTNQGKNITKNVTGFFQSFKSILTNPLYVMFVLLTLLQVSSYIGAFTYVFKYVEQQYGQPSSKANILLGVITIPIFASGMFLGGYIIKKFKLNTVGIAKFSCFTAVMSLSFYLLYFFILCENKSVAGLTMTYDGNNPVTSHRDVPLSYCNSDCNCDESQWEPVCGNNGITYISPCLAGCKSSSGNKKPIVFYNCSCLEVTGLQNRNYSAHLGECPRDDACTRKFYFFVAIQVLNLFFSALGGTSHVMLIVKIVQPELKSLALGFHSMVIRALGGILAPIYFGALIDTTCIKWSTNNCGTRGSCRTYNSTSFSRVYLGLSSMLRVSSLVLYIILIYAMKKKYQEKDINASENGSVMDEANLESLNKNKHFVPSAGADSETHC

[2] = target: T1, OATP1B1; test: Transporter substrate study using HEK293-OATP1B1 cells

## CO[C@H]1/C=C/O[C@@]2(C)Oc3c(C)c(O)c4c(O)c(c(/C=N/N5CCN(C)CC5)c(O)c4c3C2=O)NC(=O)/C(C)=C\C=C\[C@H](C)[C@H](O)[C@@H](C)[C@@H](O)[C@@H](C)[C@H](OC(C)=O)[C@@H]1C [rifampicin]
[1]; 0.1 μM
  Relative net uptake rate of MPAG (% of NC), Mean: 109 % of NC
[1]; 1 μM
  Relative net uptake rate of MPAG (% of NC), Mean: 26.8 % of NC
[1]; 3 μM
  Relative net uptake rate of MPAG (% of NC), Mean: 30.9 % of NC
[1]; 10 μM
  Relative net uptake rate of MPAG (% of NC), Mean: 8.07 % of NC
[1]; 30 μM
  Relative net uptake rate of MPAG (% of NC), Mean: 2.90 % of NC
[1]; 100 μM
  Relative net uptake rate of MPAG (% of NC), Mean: 3.13 % of NC
[2]; rifampicin treatment, probe substrate E217βG
  inhibition rate of OATP1B1-mediated E217βG uptake: 97.7%

## C[C@]12CC[C@@H]3c4ccc(O)cc4CC[C@H]3[C@@H]1CC[C@@H]2O[C@@H]1O[C@H](C(=O)O)[C@@H](O)[C@H](O)[C@H]1O [E217βG, Estradiol-17β-D-glucuronide]
[2]; without inhibitor, vs MOCK cells
  uptake ratio (UR) of probe substrate mediated by OATP1B1: 17.9

Read-outs that look alike come from different tables or passages of the source.
